For this assay, the system named is rhesus PD-L1. Put plainly: FACS binding to PMA/ionomycin-cultured rhesus mononuclear cells (CD4+ T cells). As to conditions: half-maximal binding. Here is the method: Rhesus blood was obtained from Southwest Foundation for Biomedical Research (San Antonio, Tex.). Blood was diluted with an equal volume of PBS and overlayed on 96% Ficoll-Paque (GE Healthcare) for separation of mononuclear cells. Mononuclear cells were lysed of red blood cells using erythrocyte lysis buffer (Qiagen) and cultured overnight at 1.5×10^6 cells/ml with 5 ng/ml PMA plus 1 μM ionomycin in 6-well plates. Culture media was RPMI 1640 with 10% fetal bovine serum, 20 μM HEPES, and 1:100 dilutions of the following supplements from Gibco: Gluta-MAX, sodium pyruvate, penicillin/streptomycin, and non-essential amino acids. Cells were harvested the following day and aliquoted to a 96-well plate for binding studies (approximately 120,000 cells per well).
The PD-L1 antibody YW243.55.570 or Herceptin® antibody control were titrated starting at 10 μg/ml, in three-fold serial dilutions and bound to cells in 50 μl volumes for 25 minutes on ice. Cells were washed and then bound with anti-human IgG PE (Caltag) at 20 μg/ml for 25 minutes on ice. […]
All samples were run on a […] FACSCalibur and Mean Fluorescence Intensity of PD-L1 binding data as a function of anti-PD-L1 antibody concentration was analyzed using Tree Star, Inc. FlowJo® software; EC50, values (Ab concentration associated with half-maximal binding) were calculated using Kaleidagraph. […]

For orientation: EC50 means the concentration giving half of the maximal effect. Higher therefore signals lower potency in that assay.

Regarding “YW243.55.S70: affinity-matured phage anti-PD-L1 antibody derived from YW243.55, selected as the primary candidate; full length IgG1”, the half-maximal effective concentration (EC50) amounted to 300 pM.

These data come from US20210032345A1, “ANTI-PD-L1 ANTIBODIES, COMPOSITIONS AND ARTICLES OF MANUFACTURE” (Genentech, Inc., priority 2008, published 2021).
